Results as given in PubChem BioAssay AID743266 (National Center for Advancing Translational Sciences (NCATS), 2014).
Only a part is listed here, and it is no random draw. The source made the active and inactive calls. Calls come from the whole dose curve; as a rule, active = well fitted activation curve with a large enough effect; inconclusive = small, poorly fitted or top-dose-only effect, or another doubt; inactive = no such curve, though single readings can be large or run the other way.

By UniProt entry, the sequences of proteins in these tests, tags left out.
UniProt Q03431, whole entry: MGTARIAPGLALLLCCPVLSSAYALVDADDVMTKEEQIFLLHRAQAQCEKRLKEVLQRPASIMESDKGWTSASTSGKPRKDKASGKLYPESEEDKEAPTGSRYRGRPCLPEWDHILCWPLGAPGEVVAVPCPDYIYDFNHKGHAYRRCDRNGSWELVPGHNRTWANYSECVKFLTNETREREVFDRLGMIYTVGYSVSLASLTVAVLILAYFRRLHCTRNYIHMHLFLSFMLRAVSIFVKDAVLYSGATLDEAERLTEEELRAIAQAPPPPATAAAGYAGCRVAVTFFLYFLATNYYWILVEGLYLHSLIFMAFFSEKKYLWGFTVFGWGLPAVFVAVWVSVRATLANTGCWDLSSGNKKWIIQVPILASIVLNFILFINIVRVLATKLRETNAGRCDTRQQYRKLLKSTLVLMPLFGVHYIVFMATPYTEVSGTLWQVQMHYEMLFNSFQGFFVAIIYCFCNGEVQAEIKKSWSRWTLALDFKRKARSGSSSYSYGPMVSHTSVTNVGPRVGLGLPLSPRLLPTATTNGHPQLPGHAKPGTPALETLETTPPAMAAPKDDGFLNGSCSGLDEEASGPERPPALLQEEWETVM

Biological target: Parathyroid hormone/parathyroid hormone-related peptide receptor (Homo sapiens) (UniProt Q03431)
Assay: qHTS for PTHR1 Agonists: Primary Screen; note: nearly all actives have a fitted effect of over 55% in size
Conditions: HEK293 GP2 PTHR1 cells, GloSensor cAMP luminescence, 1 h; activation: at 115 µM (top of the series) unless noted

**Q.** For `Cc1ccccc1NP(C)(=O)Nc1ccccc1C`, which activation is on record?
**A.** inactive

**Q.** How did the activation turn out when `COc1ccc(OP(C)(=O)Nc2cccc(Br)c2)cc1` (centres undefined) was run?
**A.** inactive

**Q.** For `COc1ccc(NP(C)(=O)Oc2ccccc2OC)cc1` (centres undefined), which activation is on record?
**A.** inactive: -38.6%

**Q.** `CN(C)CCOC(=O)C(O)(c1ccccc1)C1CCCCC1` (centres undefined) was tested. Which activation did it give?
**A.** inactive: -6.04% [at 57.5 µM]

**Q.** For `Cc1cc(-c2cccc3ccccc23)c(C)cn1.O=[N+]([O-])c1cc([N+](=O)[O-])c(O)c([N+](=O)[O-])c1`, which activation is on record?
**A.** inactive: -4.02%

**Q.** `O=[N+]([O-])c1ccc(OP2(=O)COCCO2)cc1` (centres undefined) was tested. Which activation did it give?
**A.** inactive: -9.21%

**Q.** For `Cc1c(C(c2ccc3c(c2)OCO3)c2c(C)n(C)n(-c3ccccc3)c2=O)c(=O)n(-c2ccccc2)n1C.O=[N+]([O-])c1cc([N+](=O)[O-])c(O)c([N+](=O)[O-])c1`, which activation is on record?
**A.** inactive: 2.16%

**Q.** For `Nc1ccc2c(ccc3cccnc32)n1.O=[N+]([O-])c1cc([N+](=O)[O-])c(O)c([N+](=O)[O-])c1`, which activation is on record?
**A.** inactive: -9.94%

**Q.** `CP(=O)(OC12CC3CC(CC(C3)C1)C2)OC12CC3CC(CC(C3)C1)C2` was tested. Which activation did it give?
**A.** inactive: -23.6%

**Q.** Which activation does the source give for `CCOC(=O)c1ccc(NP(C)(=O)Oc2ccc(Cl)cc2)cc1` (centres undefined) here?
**A.** inactive

**Q.** For `COc1ccc(OP(C)(=O)Nc2ccc(Br)cc2)cc1` (centres undefined), which activation is on record?
**A.** inactive: -17.3%

**Q.** With `CCN(CC)CC(O)COC(=O)C(O)(c1ccccc1)C1CCCCC1` (centres undefined) as the molecule, how does the activation read?
**A.** inactive: -5.43% [at 57.5 µM]

**Q.** Which activation does the source give for `CCc1ccc(OP(C)(=O)Nc2cccnc2)cc1` (centres undefined) here?
**A.** inactive: -7.56%

**Q.** `CP(=O)(Oc1ccccc1)N1CCOC1=O` (centres undefined) was tested. Which activation did it give?
**A.** inactive: -1.28% [at 57.5 µM]

**Q.** `O=C(OCCCN1CCCC1)C(O)(c1ccccc1)C1CCCCC1` (centres undefined) was tested. Which activation did it give?
**A.** inactive: -21.2%

**Q.** How did the outcome turn out when `COc1ccccc1OP(C)(=O)Nc1c(C)n(C)n(-c2ccccc2)c1=O` (centres undefined) was run?
**A.** inactive [at 57.5 µM]

**Q.** Which outcome does the source give for `CP(=O)(Nc1ccc(Cl)cc1)Oc1ccc(F)cc1` (centres undefined) here?
**A.** inactive [at 57.5 µM]

**Q.** `CC(C)(C)c1ccc(OP(C)(=O)O)cc1` was tested. Which activation did it give?
**A.** inactive: -14% [at 57.5 µM]

**Q.** For `COc1ccccc1OP(C)(=O)Nc1ccccc1Br` (centres undefined), which activation is on record?
**A.** inactive: -31%

**Q.** Which activation does the source give for `CN(C)C(=O)c1c([N+](=O)[O-])cc([N+](=O)[O-])cc1[N+](=O)[O-]` here?
**A.** inactive: -24.4%

**Q.** How did the activation turn out when `COc1ccccc1OP(C)(=O)Nc1ccc(Br)cc1` (centres undefined) was run?
**A.** inactive: -2.92%

**Q.** With `CN(C)CCOC(=O)C(O)(c1ccccc1)C1CCCC1` (centres undefined) as the molecule, how does the activation read?
**A.** inactive: -15.7% [at 57.5 µM]

**Q.** For `COc1ccc(OP(C)(=O)Nc2ccccn2)cc1` (centres undefined), which activation is on record?
**A.** inactive: -8.08%

**Q.** For `O=[N+]([O-])c1cc([N+](=O)[O-])c(Nc2ccccn2)c([N+](=O)[O-])c1`, which activation is on record?
**A.** inactive: -23.1%

**Q.** For `Cc1c(NP(C)(=O)Oc2ccc(C(C)C)cc2)c(=O)n(-c2ccccc2)n1C` (centres undefined), which activation is on record?
**A.** inactive

**Q.** How did the outcome turn out when `CCc1ccc(OP(C)(=O)O)cc1` was run?
**A.** inactive [at 57.5 µM]

**Q.** For `COc1ccccc1OP(C)(=O)Nc1ccc(C)cc1C` (centres undefined), which activation is on record?
**A.** inactive: -5.07% [at 57.5 µM]

**Q.** `CP(=O)(Nc1ccccn1)Oc1ccccc1` (centres undefined) was tested. Which outcome did it give?
**A.** inactive [at 57.5 µM]

**Q.** For `Cc1cc(C)cc(OP(C)(=O)Nc2cccc(C(F)(F)F)c2)c1` (centres undefined), which activation is on record?
**A.** inactive

**Q.** Which activation does the source give for `COc1ccc(OP(C)(=O)Nc2ccccc2Br)cc1` (centres undefined) here?
**A.** inactive

**Q.** With `COc1ccccc1OP(C)(=O)Nc1ccc(C)c(C)c1` (centres undefined) as the molecule, how does the activation read?
**A.** inactive: -13.7% [at 57.5 µM]

**Q.** With `CP(=O)(OCCOc1ccccc1)OCCOc1ccccc1` as the molecule, how does the activation read?
**A.** inactive: -93.6%

**Q.** How did the activation turn out when `CP(=O)(Nc1ccc(Cl)cc1Cl)Oc1ccccc1` (centres undefined) was run?
**A.** inactive: 14.8%

**Q.** How did the activation turn out when `CCCCCCCCCCCCCCCC1C[N+](C)(C)CCOP(C)(=O)O1` (centres undefined) was run?
**A.** inactive: -2.87%
